In BindingDB's records for patent US12473298 (Shanghai Synergy Pharmaceutical Sciences Co., 2025) one finds IC50 data, which are given here for four molecules.

Chains of the proteins cited; added tags and fusions are not shown.
UniProt Q15910, whole entry: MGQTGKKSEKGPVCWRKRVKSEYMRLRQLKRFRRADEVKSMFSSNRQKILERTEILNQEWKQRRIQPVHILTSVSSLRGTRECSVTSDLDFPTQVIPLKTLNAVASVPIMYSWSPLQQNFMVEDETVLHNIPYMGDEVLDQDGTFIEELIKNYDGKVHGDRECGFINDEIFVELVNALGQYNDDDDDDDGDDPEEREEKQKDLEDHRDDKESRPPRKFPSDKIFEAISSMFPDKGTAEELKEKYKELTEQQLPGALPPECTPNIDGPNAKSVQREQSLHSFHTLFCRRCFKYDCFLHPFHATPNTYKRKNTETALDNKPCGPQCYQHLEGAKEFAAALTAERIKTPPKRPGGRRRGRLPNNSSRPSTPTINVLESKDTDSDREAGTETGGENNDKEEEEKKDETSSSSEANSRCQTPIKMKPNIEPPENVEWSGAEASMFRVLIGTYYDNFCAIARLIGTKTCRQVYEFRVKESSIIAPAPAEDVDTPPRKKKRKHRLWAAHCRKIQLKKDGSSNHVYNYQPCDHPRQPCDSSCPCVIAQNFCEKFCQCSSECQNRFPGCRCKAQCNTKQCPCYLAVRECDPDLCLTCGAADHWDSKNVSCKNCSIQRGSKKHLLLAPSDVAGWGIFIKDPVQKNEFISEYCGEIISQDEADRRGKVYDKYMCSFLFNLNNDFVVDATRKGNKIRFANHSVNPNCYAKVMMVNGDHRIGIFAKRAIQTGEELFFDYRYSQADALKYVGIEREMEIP
UniProt Q15910, whole entry A677G/A687V: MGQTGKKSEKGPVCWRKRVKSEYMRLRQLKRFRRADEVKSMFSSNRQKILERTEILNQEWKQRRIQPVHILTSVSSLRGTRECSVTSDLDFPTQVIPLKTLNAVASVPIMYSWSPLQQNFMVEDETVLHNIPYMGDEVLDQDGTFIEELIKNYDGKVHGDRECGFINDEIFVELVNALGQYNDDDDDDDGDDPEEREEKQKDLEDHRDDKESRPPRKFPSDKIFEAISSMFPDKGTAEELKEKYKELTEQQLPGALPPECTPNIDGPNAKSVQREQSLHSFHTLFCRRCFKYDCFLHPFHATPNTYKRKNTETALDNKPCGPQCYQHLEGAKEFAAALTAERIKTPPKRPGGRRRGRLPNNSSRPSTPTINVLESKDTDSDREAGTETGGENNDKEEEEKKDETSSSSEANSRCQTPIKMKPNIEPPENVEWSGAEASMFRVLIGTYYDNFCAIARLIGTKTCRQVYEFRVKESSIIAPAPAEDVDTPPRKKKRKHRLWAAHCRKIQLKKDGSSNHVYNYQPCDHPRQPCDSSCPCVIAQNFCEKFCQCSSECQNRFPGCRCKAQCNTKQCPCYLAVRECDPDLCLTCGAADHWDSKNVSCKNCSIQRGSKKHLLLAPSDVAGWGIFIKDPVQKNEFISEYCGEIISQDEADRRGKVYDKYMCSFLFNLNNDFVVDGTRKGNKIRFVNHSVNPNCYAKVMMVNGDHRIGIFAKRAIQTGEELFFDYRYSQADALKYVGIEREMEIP
UniProt Q15910, whole entry Y641F: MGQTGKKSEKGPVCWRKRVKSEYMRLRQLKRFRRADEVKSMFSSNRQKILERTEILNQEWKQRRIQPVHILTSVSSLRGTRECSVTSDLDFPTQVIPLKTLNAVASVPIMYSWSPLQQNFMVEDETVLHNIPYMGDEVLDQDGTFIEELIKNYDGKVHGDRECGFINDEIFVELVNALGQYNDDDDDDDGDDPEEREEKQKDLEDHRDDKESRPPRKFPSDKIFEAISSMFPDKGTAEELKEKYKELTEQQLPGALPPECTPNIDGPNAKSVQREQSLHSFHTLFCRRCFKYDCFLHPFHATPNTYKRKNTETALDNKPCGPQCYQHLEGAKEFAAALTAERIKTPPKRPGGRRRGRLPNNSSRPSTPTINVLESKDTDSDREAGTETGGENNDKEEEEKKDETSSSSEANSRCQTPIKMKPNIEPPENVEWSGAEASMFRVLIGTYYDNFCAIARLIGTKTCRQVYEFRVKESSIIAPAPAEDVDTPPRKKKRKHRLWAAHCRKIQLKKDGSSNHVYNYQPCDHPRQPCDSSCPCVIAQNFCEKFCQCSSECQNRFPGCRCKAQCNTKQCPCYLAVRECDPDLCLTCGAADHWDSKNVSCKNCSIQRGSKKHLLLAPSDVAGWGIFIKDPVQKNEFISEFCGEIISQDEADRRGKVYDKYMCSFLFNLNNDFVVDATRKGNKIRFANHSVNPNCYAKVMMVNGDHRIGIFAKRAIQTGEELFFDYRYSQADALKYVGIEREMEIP
UniProt Q15910, whole entry Y641N: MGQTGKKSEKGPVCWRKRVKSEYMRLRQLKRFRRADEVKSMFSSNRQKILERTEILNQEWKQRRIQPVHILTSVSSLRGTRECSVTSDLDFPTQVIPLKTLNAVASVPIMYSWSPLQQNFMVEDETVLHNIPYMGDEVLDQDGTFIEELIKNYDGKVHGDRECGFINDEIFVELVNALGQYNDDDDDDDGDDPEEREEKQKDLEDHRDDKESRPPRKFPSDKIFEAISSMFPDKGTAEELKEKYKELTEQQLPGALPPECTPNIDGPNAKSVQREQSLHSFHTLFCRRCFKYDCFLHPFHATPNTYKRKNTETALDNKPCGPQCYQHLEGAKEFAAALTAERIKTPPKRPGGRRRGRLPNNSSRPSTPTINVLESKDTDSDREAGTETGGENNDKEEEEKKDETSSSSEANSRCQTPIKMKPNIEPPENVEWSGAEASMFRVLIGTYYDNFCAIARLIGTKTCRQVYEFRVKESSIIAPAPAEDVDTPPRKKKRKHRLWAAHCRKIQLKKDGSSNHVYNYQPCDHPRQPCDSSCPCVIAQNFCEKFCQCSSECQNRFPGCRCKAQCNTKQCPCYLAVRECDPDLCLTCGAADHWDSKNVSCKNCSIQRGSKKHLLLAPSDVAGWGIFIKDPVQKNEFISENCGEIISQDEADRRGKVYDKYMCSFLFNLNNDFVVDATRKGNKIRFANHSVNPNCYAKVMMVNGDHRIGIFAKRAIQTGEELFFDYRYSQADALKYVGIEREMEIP

Assay [1] concerns the target Histone-lysine N-methyltransferase EZH2 (Homo sapiens, UniProt Q15910).
Assay [2] has as its target Histone-lysine N-methyltransferase EZH2 [A677G] (Homo sapiens, UniProt Q15910, A677G).
Assay [3] addresses Histone-lysine N-methyltransferase EZH2 [Y641F] (Homo sapiens, UniProt Q15910, Y641F).
Assay [4] deals with Histone-lysine N-methyltransferase EZH2 [Y641N] (Homo sapiens, UniProt Q15910, Y641N).

As to `CCN(c1cc(-c2ccc3c(c2)N(C(C)C)CC32CCOCC2)cc(C(=O)NCc2c(C)cc(C)[nH]c2=O)c1C)C1CCOCC1` [US12473298, Compound 25], the IC50 (usually the point on the concentration scale where inhibition reaches its midpoint) in assay [1] turned out to be 0.33 nM; in assay [2], 0.14 nM; in assay [3], 0.29 nM; in assay [4], 0.09 nM.

For the molecule `CCN(c1cc(-c2ccc3c(c2)N(C)C(=O)C32CCN(C(F)(F)C(F)(F)F)CC2)cc(C(=O)NCc2c(C)cc(C)[nH]c2=O)c1C)C1CCOCC1` [US12473298, Compound 44], the IC50 came to 0.91 nM in assay [1] and 0.75 nM in assay [3].

For `CCCN1C(=O)C2(CCOCC2)c2ccc(-c3cc(N(CC)C4CCOCC4)c(C)c(C(=O)NCc4c(C)cc(C)[nH]c4=O)c3F)cc21` [US12473298, Compound 58], the figures for the IC50 in assay [1], in assay [3] and in assay [4] were 0.62 nM, 0.47 nM and 0.19 nM, respectively.

Molecule `CCN(c1cc(-c2ccc3c(c2)N(C(C)C)C(=O)C32CCOCC2)cc(C(=O)NCc2c(OC)cc(C)[nH]c2=O)c1C)C1CCOC(C)(C)C1` (stereo not given) [US12473298, Compound 64] had an IC50 in assay [2] of 0.46 nM.
